Laboratory results: PubChem BioAssay (Tox21)
The list shows a part of the results, in another mix than the full data. Records with an inconclusive call do not appear. The source made the active and inactive calls. The call rests on the fitted dose curve.

target: Beta-2 adrenergic receptor (Homo sapiens) (UniProt P07550); experiment: Adrenergic beta2 receptor (ADRB2) small molecule agonists, cell-based qHTS assay (AID 1963593); conditions: CHO-ADRB2 cells, cAMP HTRF, 30 min; at 92.4 µM (top of the series) unless noted
Excerpt: National Center for Advancing Translational Sciences [NCATS]
Division of Preclinical Innovation [DPI]
U.S. Environmental Protection Agency [EPA]
National Institutes of Environmental Health Sciences [NIEHS]
National Toxicology Program [NTP]
U.S. Food and Drug Administration [FDA]
Beta adrenergic receptors (Beta-ARs) belong to the G-protein coupled receptor (GPCR) superfamily, includes three subtypes - beta1, beta2, and beta3. Beta1-AR is the predominant receptor subtype expressed in the heart, and beta2-AR is expressed in the kidney, lung, blood vessel and in the heart, and beta3 is found in the adipocytes. Beta1 and 2 ARs couple to Gs protein and elevate cyclic adenosine mono phosphate (cAMP), which activates protein kinase A and leads to the downstream signaling responsible for the physiological actions. Beta-AR agonists or antagonists are the most prescribed therapeutic agents for heart failure and asthma, and these were one of the first target receptors for the rational drug design. Tox21 10K compound library was screened using the cAMP-Gs dynamic assay (Cisbio Bioassays, Shelton, CT) to identify agonists/antagonists of the Gs-coupled human adrenergic, beta2 receptor (ADRB2) in the CHO-ADRB2 cell line (Codex BioSolutions, Inc. Gaithersburg, MD), which stably over-expresses ADRB2. The principle of cAMP-Gs dynamic assay is based on HTRF technology, which facilitates the fluorescence resonance energy transfer (FRET) between donor Europium cryptate and acceptor d2-labeled cAMP. The cAMP generated within cells competes with the red acceptor, d2-labled cAMP, for binding to the monoclonal anti-cAMP-cryptate (Europium donor). An increase in intracellular cAMP leads to the disruption of FRET signal, and the signal is inversely proportional to the cAMP concentration. Isoproterenol HCl (Sigma-Aldrich, St. Louis, MO) was used as a positive control in the screening.
Tox21 Assay Protocol Summary:
CHO-ADRB2 cells were dispensed at 1,000/well in 4uL assay medium into white/solid 1536-well plates (Greiner Bio-One North America Inc., Monroe, NC) using a Multidrop Combi dispenser (ThermoFisher Scientific, Waltham, MA). The assay plates were incubated at 37C and 5% CO2 for an overnight (18-20hr). Then positive control and test compounds dissolved in DMSO were transferred to the assay plates at 23nL using a Pintool station (Wako, San Diego, CA). Following the compound and positive control transfer, 1uL stimulation mix containing 100uM IBMX and 25uM Ro-20-1724 was added to each well of the assay plates using BioRAPTR Flying Reagent Dispenser (FRD, Beckman Coulter, Brea, CA). The assay plates were incubated at room temperature for 0.5hr. Then 2.5ul each d2-labled cAMP and anti-cAMP-cryptate solutions were added separately to each well of the assay plates using an FRD and the assay plates were incubated at room temperature for 1hr.
On the % scale 0 is the no-effect control and ±100 the full control effect.

| SMILES | activation |
| --- | --- |
| CCCCCCCCCCCCCC[P+](CCCCCC)(CCCCCC)CCCCCC | inactive: 14.6% |
| CCOC(=O)Cl | inactive: 15% |
| CCCCO[P+](=O)OCCCC | inactive: 21.5% |
| O=P(Cl)(Oc1ccccc1)Oc1ccccc1 | inactive: 7.75% |
| CCOP(=S)(CC)Sc1ccccc1 (stereo unspecified) | inactive: 0.928% |
| O=C(Cl)Oc1ccccc1 | inactive: 20.7% |
| CC(C)CCCCCCCOP(OCCCCCCCC(C)C)Oc1ccccc1 | inactive: 5.82% |
| NC(=O)Nc1ccc([As](=O)(O)O)cc1 | inactive: 2.08% [at 42.5 µM] |
| CCCCC(CC)CO[P+](=O)OCC(CC)CCCC (stereo unspecified) | inactive: -9.51% |
| COP(=S)(Cl)OC | inactive: 21.2% |
| O=[P+](Oc1ccccc1)Oc1ccccc1 | inactive: 7.75% |
| COC(=O)Cl | inactive: 7.88% |
| CC(C)OP(=S)(OC(C)C)SCCNS(=O)(=O)c1ccccc1 | inactive: -1.16% |
| ClP(Cl)c1ccccc1 | inactive: 20.3% |
| O=P(Cl)(Cl)c1ccccc1 | inactive: 20.3% |
| CCCCOP(OCCCC)OCCCC | inactive: 12.3% |
